Data from ChEMBL document CHEMBL1143535 (Bioorg Med Chem Lett, 2005).
Where “and” joins values, the source holds several entries; their conditions need not be identical. Equal entries are not always repeated.

Amino acid sequences for entries named in this document (tags omitted).
UniProt P08483, whole entry: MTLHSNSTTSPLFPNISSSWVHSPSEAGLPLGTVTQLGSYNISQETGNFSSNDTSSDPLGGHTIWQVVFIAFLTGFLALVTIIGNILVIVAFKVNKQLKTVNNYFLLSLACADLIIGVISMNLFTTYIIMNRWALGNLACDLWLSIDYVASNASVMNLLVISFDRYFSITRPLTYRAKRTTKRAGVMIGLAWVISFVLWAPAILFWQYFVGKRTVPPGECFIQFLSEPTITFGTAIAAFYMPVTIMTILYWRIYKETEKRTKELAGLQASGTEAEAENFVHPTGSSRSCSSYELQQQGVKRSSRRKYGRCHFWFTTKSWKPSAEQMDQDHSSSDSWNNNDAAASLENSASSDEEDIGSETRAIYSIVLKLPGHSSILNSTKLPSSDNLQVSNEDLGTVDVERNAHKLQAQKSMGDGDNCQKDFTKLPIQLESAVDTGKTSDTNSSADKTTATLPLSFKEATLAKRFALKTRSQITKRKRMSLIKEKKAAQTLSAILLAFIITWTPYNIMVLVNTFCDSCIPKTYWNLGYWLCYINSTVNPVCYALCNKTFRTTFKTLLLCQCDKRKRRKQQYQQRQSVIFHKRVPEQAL

The compounds below were run against Muscarinic acetylcholine receptor M3 (Rattus norvegicus, UniProt P08483) (assay: Affinity for rat Muscarinic acetylcholine receptor M3).

| SMILES | Ki |
| --- | --- |
| Cc1ccc(O)c(C(CCN2C[C@H]3C[C@H]3C2C)c2ccccc2)c1 (stereo not given in full) | 79 nM and 25 nM |
| Cc1ccc(OCc2ccccc2)c(C(CCN2C[C@@]3(C)C[C@@]3(C)C2)c2ccccc2)c1 (stereo not given in full) | > 10000 nM |
| Cc1ccc(O)c(C(CCN2C[C@H]3C[C@@]3(C)C2)c2ccccc2)c1 (stereo not given in full) | 118 nM |
| O=C(NCC#CCN1CC2CC2C1)C(O)(c1ccc(F)cc1)c1ccc(F)cc1 (stereo not given) | 366 nM |
| O=C(NCC#CCN1CC2CC2C1)C(O)(c1ccccc1)c1ccccc1 (stereo not given) | 291 nM |
| Cc1ccc(OCc2ccccc2)c(C(CCN2C[C@H]3C[C@H]3C2)c2ccccc2)c1 (stereo not given in full) | > 1000 nM |
| Cc1ccc(OCc2ccccc2)c(C(CCN2C[C@H]3C[C@H]3C2C)c2ccccc2)c1 (stereo not given in full) | > 1000 nM |
| Cc1ccc(O)c(C(CCN2C[C@@]3(C)C[C@@]3(C)C2)c2ccccc2)c1 (stereo not given in full) | > 1000 nM |
| O=C(NCC#CCN1CC2CC2C1)C(O)(c1ccccc1)C1CCCCC1 (stereo not given) | 2610 nM |
| Cc1ccc(O)c(C(CCN2CC3C[C@@H]3C2)c2ccccc2)c1 (single isomer, unassigned) | 50 nM |
